Measured values reported in ChEMBL document CHEMBL1131095, “Derivation of a three-dimensional pharmacophore model of substance P antagonists bound to the neurokinin-1 receptor” (J Med Chem, 1998).

Amino acid sequences for entries named in this document (tags omitted).
UniProt P25103, whole entry: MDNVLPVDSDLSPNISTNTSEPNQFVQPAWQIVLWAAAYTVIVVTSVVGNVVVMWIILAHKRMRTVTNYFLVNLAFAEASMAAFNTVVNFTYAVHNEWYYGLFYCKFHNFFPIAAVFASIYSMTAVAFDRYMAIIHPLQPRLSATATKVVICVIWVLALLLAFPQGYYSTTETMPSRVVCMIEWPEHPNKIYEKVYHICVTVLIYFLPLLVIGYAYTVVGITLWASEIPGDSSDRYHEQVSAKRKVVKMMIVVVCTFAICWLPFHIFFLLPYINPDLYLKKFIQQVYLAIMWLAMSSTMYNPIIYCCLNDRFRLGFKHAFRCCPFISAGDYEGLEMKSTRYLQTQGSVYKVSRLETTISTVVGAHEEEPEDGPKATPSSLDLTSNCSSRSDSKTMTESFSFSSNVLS

Target: Substance-P receptor (Homo sapiens, UniProt P25103)
Test: Binding affinity was measured against the Tachykinin receptor 1 in CHO-expressed hNK1 using [125I]SP.

SMILES | IC50 [nM]
Cc1cc(C)cc(CO[C@@H]2/C(=C/c3ccccc3)N3CCC2CC3)c1 | 8130
CN(C)[C@H](COCc1cc(C(F)(F)F)cc(C(F)(F)F)c1)C(c1ccccc1)c1ccccc1 | 2
Cc1cc(C)cc(CO[C@@H]2/C(=C\c3ccccc3)N3CCC2CC3)c1 | 129
N[C@H](COCc1cc(C(F)(F)F)cc(C(F)(F)F)c1)C(c1ccccc1)c1ccccc1 | 10.7
